Laboratory results as given in ChEMBL document CHEMBL1129803, “Novel phenyl nitrogen mustard and half-mustard derivatives of distamycin A” (1997).
Converted amounts (≈) assume the structure as drawn. “And” between values parts separate entries of the source, which are not always exact repeats. Identical values can stand only once.

Experiments:
[1] = Hydrolysis in acetone/water (50:50) at a pH of 8.0,T =66 degree Centigrade; conditions: buffer, pH 8
L1210 [2] = test: Compound was tested in vivo for cytotoxicity against L1210 murine leukemia cells in mice after intravenous administration
L1210 [3] = test: Compound was tested in vitro for cytotoxicity after 48 hr of continuouse exposure against L1210 murine leukemia cells
[4] = Alkylation of 4-(4-nitrobenzyl)pyridine (NBP) by the compound at a temperature of 66 degree Centigrade
L1210 [5] = test: Compound was tested in vivo for cytotoxicity against L1210 murine leukemia cells in mice after intravenous administration and is expressed as optimal non-toxic dose
[6] = Hydrolysis in acetone/water (50:50) at a pH of 8.0, T=66 degree Centigrade; conditions: buffer, pH 8

| SMILES | Khydrol [1] [s⁻¹] | T/C (L1210 [2]) [%] | IC50 (L1210 [3]) [µg/mL] | K alkyl [4] | OD (L1210 [5]) [mg/kg] | Khydrol [6] [s⁻¹] |
| --- | --- | --- | --- | --- | --- | --- |
| Cn1cc(NC(=O)c2cc(NC(=O)c3cc(NC(=O)c4ccc(N(CCCl)CCCl)cc4)cn3C)cn2C)cc1C(=O)NCCC(=N)N | 7.4e-05 | 118 | 0.208 (≈ 0.298 µM) | 0.00055 s⁻¹ and 0.00062 s⁻¹ | 3.13 | 3.8e-05 |
| CCN(CCCl)c1ccc(/C=C/C(=O)Nc2cc(C(=O)Nc3cc(C(=O)Nc4cc(C(=O)NCCC(=N)N)n(C)c4)n(C)c3)n(C)c2)cc1 |  | 207 | 0.0029 (≈ 0.00421 µM) |  |  |  |
| Cn1cc(NC(=O)c2cc(NC(=O)c3cc(NC(=O)c4ccc(NCCCl)cc4)cn3C)cn2C)cc1C(=O)NCCC(=N)N |  |  | 0.45 (≈ 0.709 µM) |  |  |  |
| Cn1cc(NC(=O)c2cc(NC(=O)c3cc(NC(=O)c4ccc(N(CCBr)CCBr)cc4)cn3C)cn2C)cc1C(=O)NCCC(=N)N | 0.00064 | 169 | 0.0006 (≈ 0.000763 µM) | 0.0062 s⁻¹ |  |  |
| CCN(CCCl)c1ccc(C(=O)Nc2cc(C(=O)Nc3cc(C(=O)Nc4cc(C(=O)NCCC(=N)N)n(C)c4)n(C)c3)n(C)c2)cc1 | 0.00032 | 133 | 0.042 (≈ 0.0633 µM) | 0.00055 s⁻¹ |  |  |
| Cn1cc(NC(=O)c2cc(NC(=O)c3cc(NC(=O)c4ccc(N(CCO)CCO)cc4)cn3C)cn2C)cc1C(=O)NCCC(=N)N |  |  | > 10 |  |  |  |
| Cn1cc(NC(=O)c2cc(NC(=O)c3cc(NC(=O)/C=C/c4ccc(N(CCCl)CCCl)cc4)cn3C)cn2C)cc1C(=O)NCCC(=N)N | 0.00029 |  | 0.0072 (≈ 0.00995 µM) | 0.0013 s⁻¹ |  |  |
| Cn1cc(NC(=O)c2cc(NC(=O)c3cc(NC(=O)c4ccc(N(CCCl)CCCl)c(F)c4)cn3C)cn2C)cc1C(=O)NCCC(=N)N | 5.6e-05 |  | 0.223 (≈ 0.311 µM) | 0.00058 s⁻¹ |  |  |
| Cc1cc(C(=O)Nc2cc(C(=O)Nc3cc(C(=O)Nc4cc(C(=O)NCCC(=N)N)n(C)c4)n(C)c3)n(C)c2)cc(C)c1N(CCCl)CCCl | 0.0028 | 171 | 0.228 (≈ 0.314 µM) |  |  |  |
| Cn1cc(NC(=O)c2cc(NC(=O)c3cc(NC(=O)c4ccc(N(CCF)CCF)cc4)cn3C)cn2C)cc1C(=O)NCCC(=N)N |  |  | > 10 |  |  |  |
| CCCN(CCCl)c1ccc(C(=O)Nc2cc(C(=O)Nc3cc(C(=O)Nc4cc(C(=O)NCCC(=N)N)n(C)c4)n(C)c3)n(C)c2)cc1 |  | 112 | 0.739 (≈ 1.09 µM) |  |  |  |
| Cc1cc(C(=O)Nc2cc(C(=O)Nc3cc(C(=O)Nc4cc(C(=O)NCCC(=N)N)n(C)c4)n(C)c3)n(C)c2)ccc1N(CCCl)CCCl | 0.0014 | 175 | 0.0111 (≈ 0.0156 µM) | 0.014 s⁻¹ |  |  |
| CCN(CCCl)c1ccc(C(=O)Nc2cc(C(=O)Nc3cc(C(=O)Nc4cc(C(=O)NCCC(=N)N)n(C)c4)n(C)c3)n(C)c2)cc1C |  | 150 | 0.0555 (≈ 0.082 µM) |  |  |  |
